Binding of CDR-mutated scFvs to a peptide of the spike HR2 region

Antigen: PDVDLGDISGINAS, a 14-residue peptide of the SARS-CoV-2 spike HR2 region.

Parent scFv Ab-14: VH joined to VL by three GGGGS repeats. Changes lie in the light chain CDRs alone.
VH: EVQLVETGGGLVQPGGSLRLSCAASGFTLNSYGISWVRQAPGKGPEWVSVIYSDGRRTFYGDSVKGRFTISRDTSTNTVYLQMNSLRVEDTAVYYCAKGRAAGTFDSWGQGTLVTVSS
VL: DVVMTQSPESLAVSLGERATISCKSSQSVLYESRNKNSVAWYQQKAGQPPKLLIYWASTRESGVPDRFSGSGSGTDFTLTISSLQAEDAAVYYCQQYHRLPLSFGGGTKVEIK

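Phage display of a naive human antibody library on the peptide gave the parent. Variants in AAYL50 differ from the parent at up to three CDR positions; double and triple changes were sampled at random. In AlphaSeq, yeast of one mating type display the scFv and yeast of the other type display the target. Binding brings cells together so that they mate, and sequencing counts the barcode pairs among the diploids. Scores were corrected for input abundance and mapped to Kd with protein pairs of known affinity run in the same pool. Each pool was mated in three replicate cultures.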

The parent's light chain CDRs are KSSQSVLYESRNKNSVA, WASTRES, QQYHRLPLS; each variant's own CDRs replace them letter for letter. Kd is apparent (estimated from mating counts) and averaged on the log scale over replicates with a signal. Smaller is tighter. "not detected" marks a missing value. The strain was present, yet no cells mated with the target were sequenced in any replicate, which points to weak or no binding. For reference, the parent read 4.4 nM as the reference entry and 48 nM as a member of this library. Empty control strains, which show no peptide, gave a signal in 18% of pairings with library AAYL50; the median was 15 µM and 95% of these signals were weaker than 970 nM. No background was subtracted. Also given: how often the same scFv was detected with the empty control strains.

CDR-L1,CDR-L2,CDR-L3,Kd,detected,empty controls
KSSQSVLYESRNKNSHA,WASTFES,QQYHRLPFS,not detected,0 of 3,0 of 9
KSSQCVLYESRNKNSMA,WASTRFS,QQYHRLPLS,not detected,0 of 3,0 of 9
KSSQSVVYEDRNKNSVA,WASTRES,QQYHRLPLS,5.4 nM,3 of 3,2 of 9
KSSQSVLYESRNKNSVA,DASTRES,QQYHRLTLS,960 nM,3 of 3,0 of 9
KCSQSVGYESRNKNSVA,WASWRES,QQYHRLPLS,not detected,0 of 3,1 of 9
KSSQSVLYESRNKNSVP,WASPRES,QQYKRLPLS,not detected,0 of 3,0 of 9
KSSQSVMYESRNKNSVN,WASTRES,QYYHRLPLS,2.7 µM,1 of 3,2 of 9
KSSQSVLYEPRNYNSVA,WASTRES,QQYHRLTLS,not detected,0 of 3,0 of 9
VSSQSVLYESRNKNSVA,WNSTRES,QQYHHLPLS,not detected,0 of 3,7 of 9
KSSQSELYESRNKNSVA,WASTRQS,QQYSRLPLS,2.5 nM,3 of 3,9 of 9
KSSPSVLGESRNKNSVA,WASTRES,QQYHRLHLS,4.2 nM,3 of 3,3 of 9
KSSQSVLLESFNKNSVA,WASTRES,QQYHRLPLS,not detected,0 of 3,0 of 9
KSSQFVLYEDRRKNSVA,WASTRES,QQYHRLPLS,24 nM,3 of 3,1 of 9
KSSQSGLYESRNKNSVA,WASTQDS,QQYHRLPLS,11 µM,1 of 3,0 of 9
KSSQSVLYESRNKNSVA,WASEREK,QQGHRLPLS,7.5 µM,3 of 3,3 of 9
KSSQSVLYESRNKNSVM,WASTRRS,QPYHRLPLS,not detected,0 of 3,0 of 9
KSSQSVLYESRNKNSVA,WGFHRES,QQYHRLPLS,28 nM,3 of 3,2 of 9
KSAQSVLYESRNKNSVA,WASTRES,QQYIRTPLS,110 µM,2 of 3,4 of 9
KSSQSVLYESRNKNSVM,WASTRES,QQYHRLWLP,not detected,0 of 3,0 of 9
KSSQSVLYESRNKDSVA,WHSTEES,QQYHRLPLS,5.3 µM,1 of 3,2 of 9
WSSQSVLYESRNKNSSA,WASTRRS,QQYHRLPLS,48 µM,1 of 3,1 of 9
KSQQSVLYESRNKNSVA,WASTRES,QQYHRLWLS,6.4 µM,1 of 3,0 of 9
KSSQSVIYVSRNKNSVA,WGSTRES,QQYHRLPLS,110 nM,3 of 3,0 of 9
KSSQAVLHESRNKNSVA,WASTRES,QQMHRLPLS,not detected,0 of 3,2 of 9
KSSQSVLYESRTKNSFA,WASTRES,QQYHRLPLN,610 µM,1 of 3,5 of 9
KSSQSVLSESRNKNNVA,WASTRIS,QQYHRLPLS,23 nM,3 of 3,0 of 9
KSSQSVLYESRNKNSVS,WASTSES,QEYHRLPLS,not detected,0 of 3,1 of 9
KTSQSVLMESRNKNSVA,WASTWES,QQYHRLPLS,not detected,0 of 3,0 of 9
LSSQATLYESRNKNSVA,WASTRES,QQYHRLPLS,190 nM,3 of 3,8 of 9
KSSQSVQYESRNKNSVA,WAMTRES,QQYHRLPLM,270 nM,2 of 3,0 of 9
KSSQSVLYESQNKNSKA,WASTREH,QQYHRLPLS,150 nM,3 of 3,7 of 9
KSSQSVLWESRNKNSVH,WAVTRES,QQYHRLPLS,not detected,0 of 3,1 of 9
KSSRSCLYESRNKNSVA,WASTRES,QQYHRLPLS,130 nM,3 of 3,1 of 9
KSIQSVLYESRNKNSVA,WASTREW,QKYHRLPLS,850 µM,2 of 3,3 of 9
KSSQSVLYESRNKNSCA,IQSTRES,QQYHRLPLS,61 µM,2 of 3,3 of 9
KQSQSVLYESMNKNSVA,WASTREV,QQYHRLPLS,10 nM,3 of 3,4 of 9
KSSQSVLYENRNKNQVA,WASTHES,QQYHRLPLS,not detected,0 of 3,0 of 9
KSSQSVLYESRNKNSVA,WASTRES,TQCHRLPLE,27 nM,3 of 3,4 of 9
VSSYSVLYESRNKNSVA,WVSTRES,QQYHRLPLS,30 µM,1 of 3,3 of 9
KSHQSVLYESRNKNSVA,WASTKES,QQYHRLPAS,not detected,0 of 3,2 of 9
KSSQSVHYESRNKNSVA,WASSRES,CQYHRLPLS,310 nM,3 of 3,0 of 9
KSSQSVLMESRNKNSVA,WAATRES,QMYHRLPLS,7.6 nM,3 of 3,1 of 9
KSMQSVLYESRNKNSVA,IASTRES,QQQHRLPLS,12 µM,1 of 3,2 of 9
KSSQYVLYESRNKNSVA,WAITRES,QQYHGLPLS,310 µM,2 of 3,2 of 9
KSSQSVSYESRNKNSVA,WASTRES,QQYHRKPLS,not detected,0 of 3,0 of 9
KSSQAVSYESRNKNSVA,WMSTRES,QQYHRLPLS,150 nM,3 of 3,0 of 9
KSSQSVLYESRNKNSVA,EASTGES,QQYHRLPLI,33 nM,3 of 3,8 of 9
KSSQSTLYESRNKNDVA,WASTRES,QQYHRYPLS,2.2 µM,2 of 3,0 of 9

Reference: Engelhart et al. 2022, doi:10.1038/s41597-022-01779-4. File: FLAb, binding data.